Measured affinities in a library of Ab-14 heavy chain variants

The measurements come from Li et al. 2023 (doi:10.1038/s41467-023-39022-2) through the FLAb antibody collection.

The target is the same throughout: PDVDLGDISGINAS, from the HR2 region of SARS-CoV-2 spike.

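The parent was found by panning a naive human phage display library on the peptide. These sequences belong to a second round, designed from the earlier measurements on random variants of the parent. Group labels follow the data file (Ctrl: baseline library sampled from a position-specific scoring matrix, with some repeated check sequences; Rand: our label for a block that the file lists under HC and that is probably the random mutants of the ten best first-round binders; En: ensemble of fine-tuned language models; GP: Gaussian process model; GPLM: also part of the Gaussian process libraries; HC: hill climbing; Gen: genetic algorithm; Gibbs: Gibbs sampling; a sequence that several methods proposed may carry one label only). In AlphaSeq, yeast of one mating type display the scFv and yeast of the other type display the target. After mating in shaken culture at 30 °C for 16 h, diploids were selected and their barcode pairs sequenced. Scores were corrected for input abundance and mapped to Kd with protein pairs of known affinity run in the same pool. There are six technical replicates.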

Parent scFv Ab-14: VH joined to VL by a (GGGGS)3 linker. Changes lie in the heavy chain CDRs alone.
VH: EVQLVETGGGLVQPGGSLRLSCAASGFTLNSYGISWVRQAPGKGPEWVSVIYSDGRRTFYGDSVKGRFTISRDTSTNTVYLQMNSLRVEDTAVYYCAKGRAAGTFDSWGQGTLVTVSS
VL: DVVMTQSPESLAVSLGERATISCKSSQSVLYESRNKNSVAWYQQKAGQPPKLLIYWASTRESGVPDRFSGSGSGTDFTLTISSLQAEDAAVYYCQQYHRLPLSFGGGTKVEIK

Changes read parent residue, position, new residue, counted from the first residue of the VH shown.
Variants here have at most six changes.
Each Kd is an estimate from the mating assay, the geometric mean of the replicates in which the pair was seen; lower is stronger.
"nd" marks a missing value. The strain was present, yet no cells mated with the target were sequenced in any replicate, which points to weak or no binding.
The parent sequence was in this pool as ten entries: three were never detected, three once, and four in most replicates, with averages from 2.2 nM to 240 nM.

- T28N G61A R100Q A101V [GPLM_Gen] = 3.5 nM (6 of 6 replicates; controls 0 of 18)
- G26K T28S R100Q A101T [GPLM_Gen] = 93 nM (4 of 6 replicates; controls 0 of 18)
- N30E S53A S107M [GP_Gen] = 6.2 nM (6 of 6 replicates; controls 0 of 18)
- T28N G61V R100N A101V [GPLM_Gibbs] = 2.7 nM (6 of 6 replicates; controls 0 of 18)
- T28D R56M A101V [GPLM_Gen] = 1.0 nM (6 of 6 replicates; controls 1 of 18)
- T28E S31E A101M S107T [GP_Gen] = 390 pM (5 of 6 replicates; controls 0 of 18)
- S31Q R56G G61S A102R T104F S107M [Rand] = nd (0 of 6 replicates; controls 0 of 18)
- G61S R100E A102G [GPLM_HC] = 33 nM (6 of 6 replicates; controls 1 of 18)
- G61D R100K A101L S107T [GP_HC] = 37 nM (6 of 6 replicates; controls 0 of 18)
- S31E D62E G103V S107Q [GPLM_HC] = nd (0 of 6 replicates; controls 0 of 18)
- T28S G61T S63R A101E [GP_Gibbs] = 2.3 nM (6 of 6 replicates; controls 0 of 18)
- G26H S31D S63K G99N R100Q [Ctrl] = 120 nM (1 of 6 replicates; controls 0 of 18)
- A102Y [Ctrl] = nd (0 of 6 replicates; controls 0 of 18)
- K65A [Ctrl] = 9.1 nM (1 of 6 replicates; controls 0 of 18)
- T28S S31T G61K R100Q A101T [GP_Gibbs] = 6.3 nM (4 of 6 replicates; controls 0 of 18)
- S31D F59Q G61D [GPLM_HC] = 60 nM (3 of 6 replicates; controls 0 of 18)
- G61S K65R S107L [Ctrl] = 25 nM (6 of 6 replicates; controls 0 of 18)
- T28N G61K A101M [GP_Gibbs] = 24 nM (6 of 6 replicates; controls 1 of 18)
- S35Q F59A D106M [Ctrl] = nd (0 of 6 replicates; controls 0 of 18)
- S31E A101K [Ctrl] = 150 nM (4 of 6 replicates; controls 1 of 18)
- T28D G61R A101T [GPLM_Gibbs] = 7.0 nM (6 of 6 replicates; controls 0 of 18)
- T28D S31E S53A R56V G61A R100E [En_HC] = 660 pM (6 of 6 replicates; controls 0 of 18)
- T28S G61S A101I [GPLM_Gibbs] = 660 pM (6 of 6 replicates; controls 0 of 18)
- K65R A101I D106S [Ctrl] = 15 nM (4 of 6 replicates; controls 0 of 18)
- G26D T28D G99C F105S [Ctrl] = nd (0 of 6 replicates; controls 0 of 18)
- T28N L29I N30G K65A A101N A102G [Ctrl] = 2.1 µM (3 of 6 replicates; controls 0 of 18)
- T58Q F59I S107M [Ctrl] = nd (0 of 6 replicates; controls 0 of 18)
- T28S G61A R100Q S107A [GPLM_Gen] = 520 pM (6 of 6 replicates; controls 1 of 18)
- S53A R56A F105N D106K S107K [Rand] = nd (0 of 6 replicates; controls 0 of 18)
- G61M R100Q A101L [GPLM_HC] = 9.1 nM (4 of 6 replicates; controls 1 of 18)
- T28S S53A R100Q A101T [GP_Gen] = 390 pM (6 of 6 replicates; controls 0 of 18)
- G26M T28D R100Q A101T [GP_Gen] = 7.4 nM (6 of 6 replicates; controls 1 of 18)
- I51K G61S A102G [Rand] = 1.7 nM (6 of 6 replicates; controls 0 of 18)

A sequence measured in both rounds can read differently, since the two assays cover different ranges.
Nonspecific signal, from three strains lacking the peptide, appeared in 1% of pairings of all heavy chain designs, centred on 120 nM (5% of these signals below 7.0 nM); values are not corrected for it. For each scFv, signals with the empty controls are counted beside the result.
In the paper, a design with two or fewer of six values counts as a poor binder.